The list shows a part of the results, in another mix than the full data. Some structures show a salt or complex split into parts, the way the source records it. Activity calls are given as the source filed them.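 Rule for the calls: active = thallium flux slope and its plate-corrected score both differing from the plate sample mean at a set confidence after two filtering rounds, in either direction; inactive = the rest.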
Molecular target: Solute carrier family 12 member 5 (Homo sapiens) (UniProt Q9H2X9)
Assay: modulation of human KCC2 ion transport – cell-based, HEK293 KCC2, FluoZin-2 fluorescence, MLSMR, primary screen (AID 1456)
Settings: KCC2 cells, thallium flux FluoZin-2 fluorescence; at 10 µM; stronger effect = higher value

By UniProt entry, the sequences of proteins in these tests, tags left out.
UniProt Q9H2X9, whole entry: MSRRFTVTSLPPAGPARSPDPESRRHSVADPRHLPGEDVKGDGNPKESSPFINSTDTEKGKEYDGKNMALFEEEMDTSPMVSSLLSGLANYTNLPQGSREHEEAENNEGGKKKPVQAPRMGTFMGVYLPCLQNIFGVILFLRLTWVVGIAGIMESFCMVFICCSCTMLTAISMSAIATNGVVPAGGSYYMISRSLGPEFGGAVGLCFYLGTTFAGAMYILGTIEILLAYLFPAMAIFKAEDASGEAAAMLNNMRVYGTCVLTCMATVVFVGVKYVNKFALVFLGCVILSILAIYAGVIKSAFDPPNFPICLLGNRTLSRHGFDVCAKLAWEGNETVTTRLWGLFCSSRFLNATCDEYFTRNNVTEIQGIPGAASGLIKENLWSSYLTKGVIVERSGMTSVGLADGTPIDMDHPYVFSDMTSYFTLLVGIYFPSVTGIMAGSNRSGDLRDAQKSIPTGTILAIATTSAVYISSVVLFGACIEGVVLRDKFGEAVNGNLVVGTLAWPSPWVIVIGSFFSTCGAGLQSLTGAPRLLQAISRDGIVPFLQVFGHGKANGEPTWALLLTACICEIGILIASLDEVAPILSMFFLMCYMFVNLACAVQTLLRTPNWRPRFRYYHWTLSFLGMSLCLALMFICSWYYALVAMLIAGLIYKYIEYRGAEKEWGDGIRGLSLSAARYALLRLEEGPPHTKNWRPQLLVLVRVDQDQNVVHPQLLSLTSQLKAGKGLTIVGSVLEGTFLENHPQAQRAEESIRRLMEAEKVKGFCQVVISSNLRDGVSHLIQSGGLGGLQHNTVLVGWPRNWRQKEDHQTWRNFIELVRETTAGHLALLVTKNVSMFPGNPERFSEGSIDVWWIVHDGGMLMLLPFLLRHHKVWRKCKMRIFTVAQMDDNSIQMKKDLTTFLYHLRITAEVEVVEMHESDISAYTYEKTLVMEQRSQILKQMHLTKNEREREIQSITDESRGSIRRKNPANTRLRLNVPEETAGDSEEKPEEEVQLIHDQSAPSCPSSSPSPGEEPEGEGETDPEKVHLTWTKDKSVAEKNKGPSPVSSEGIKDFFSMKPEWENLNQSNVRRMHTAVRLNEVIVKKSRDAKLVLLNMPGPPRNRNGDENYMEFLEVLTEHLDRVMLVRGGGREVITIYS

Structure (SMILES)	B-score
CP(=O)(Nc1ccc(SC(F)(F)F)cc1)Oc1ccc(F)cc1 (configuration not stated)	inactive: 0.884
CCOP(C)(=S)SCC(=O)NC(C)(CC)C(=O)O (configuration not stated)	inactive: 0.677
CP(=O)(Nc1ccc2c(c1)OCCO2)Oc1ccccc1 (configuration not stated)	inactive: 0.832
Cc1ccccc1NP(C)(=O)Nc1ccccc1C	inactive: 0.707
COc1ccc(OP(C)(=O)Nc2cccc(Br)c2)cc1 (configuration not stated)	inactive: 0.126
COc1ccc(NP(C)(=O)Oc2ccccc2OC)cc1 (configuration not stated)	inactive: -0.499
CN(C)CCOC(=O)C(O)(c1ccccc1)C1CCCCC1 (configuration not stated)	inactive: -0.229
O=[N+]([O-])c1cc([N+](=O)[O-])c(NCC2CCS(=O)(=O)C2)c([N+](=O)[O-])c1 (configuration not stated)	inactive: -0.184
Cc1cc(-c2cccc3ccccc23)c(C)cn1.O=[N+]([O-])c1cc([N+](=O)[O-])c(O)c([N+](=O)[O-])c1	inactive: -2.92
O=[N+]([O-])c1ccc(OP2(=O)COCCO2)cc1 (configuration not stated)	inactive: -0.761
COc1ccc(OP(C)(=O)Nc2ccc(SC(F)(F)F)cc2)cc1 (configuration not stated)	inactive: -0.0607
CCOC(=O)c1ccc(NP(C)(=O)Oc2ccc(F)cc2)cc1 (configuration not stated)	inactive: 0.856
CCN(CC)CCCOC(=O)C(O)(c1ccccc1)C1CCCCC1 (configuration not stated)	inactive: 0.182
CCCCCOc1ccc(NP(C)(=O)Oc2ccc(Cl)cc2Cl)cc1 (configuration not stated)	inactive: -0.108
CP(=O)(Nc1ccccc1)Oc1ccc(F)cc1 (configuration not stated)	active: 3.49
CC(C)c1ccc(OP(C)(=O)Nc2ccc(SC(F)(F)F)cc2)cc1 (configuration not stated)	inactive: -0.118
O=C(OCCN1CCN(CCOCc2ccccc2)CC1)C(O)(c1ccccc1)c1ccccc1	inactive: -0.437
O=C(OC1CN2CCC1CC2)c1ccc([N+](=O)[O-])cc1 (configuration not stated)	inactive: -0.0133
COc1ccc2c(c1O)-c1c(O)c(OC)cc3c1[C@H](C2)[N+](C)(C)CC3.O=[N+]([O-])c1cc([N+](=O)[O-])c([O-])c([N+](=O)[O-])c1[O-]	inactive: -0.696
COc1ccccc1OP(C)(=O)Nc1ccc(Br)cc1 (configuration not stated)	inactive: -0.426
CN(C)CCOC(=O)C(O)(c1ccccc1)C1CCCC1 (configuration not stated)	inactive: -0.00674
COc1ccc(OP(C)(=O)Nc2ccccn2)cc1 (configuration not stated)	inactive: 0.55
O=[N+]([O-])c1cc([N+](=O)[O-])c(Nc2ccccn2)c([N+](=O)[O-])c1	inactive: -0.646
Cc1c(NP(C)(=O)Oc2ccc(C(C)C)cc2)c(=O)n(-c2ccccc2)n1C (configuration not stated)	inactive: 0.666
CCc1ccc(OP(C)(=O)O)cc1	inactive: -0.791
CP(=O)(Nc1ccccn1)Oc1ccccc1 (configuration not stated)	inactive: -0.00123

Structure (SMILES)	B-score
COc1ccccc1OP(C)(=O)Nc1ccc(C)cc1C (configuration not stated)	inactive: 0.278
Cc1cc(C)cc(OP(C)(=O)Nc2cccc(C(F)(F)F)c2)c1 (configuration not stated)	inactive: 0.501
COc1ccc(OP(C)(=O)Nc2ccccc2Br)cc1 (configuration not stated)	inactive: 0.37
COc1ccccc1OP(C)(=O)Nc1ccc(C)c(C)c1 (configuration not stated)	inactive: -0.000338
Cc1nc2ccc3ccccc3c2o1.O=[N+]([O-])c1cc([N+](=O)[O-])c(O)c([N+](=O)[O-])c1	inactive: 0.133
CP(=O)(OCCOc1ccccc1)OCCOc1ccccc1	inactive: -0.845
CP(=O)(Nc1ccc(Cl)cc1Cl)Oc1ccccc1 (configuration not stated)	inactive: -0.262
CP(=O)(OC12CC3CC(CC(C3)C1)C2)OC12CC3CC(CC(C3)C1)C2	inactive: 0.487
CCOC(=O)c1ccc(NP(C)(=O)Oc2ccc(Cl)cc2)cc1 (configuration not stated)	inactive: -0.0453
COc1ccc(OP(C)(=O)Nc2ccc(Br)cc2)cc1 (configuration not stated)	inactive: 0.185
CCc1ccc(OP(C)(=O)Nc2cccnc2)cc1 (configuration not stated)	inactive: -1.31
O=C(OCCCN1CCCC1)C(O)(c1ccccc1)C1CCCCC1 (configuration not stated)	inactive: 0.803
CP(=O)(Nc1ccc(Cl)cc1)Oc1ccc(F)cc1 (configuration not stated)	inactive: 0.112
CC(C)(C)c1ccc(OP(C)(=O)O)cc1	inactive: -1.49
COc1ccccc1OP(C)(=O)Nc1ccccc1Br (configuration not stated)	inactive: -0.301
CN(C)C(=O)c1c([N+](=O)[O-])cc([N+](=O)[O-])cc1[N+](=O)[O-]	inactive: 1.22
CP(=O)(Nc1ccc(SC(F)(F)F)cc1)Oc1ccc(Cl)cc1 (configuration not stated)	inactive: -1.63
Cc1cccc(C)c1OP(C)(=O)Nc1ccc(SC(F)(F)F)cc1 (configuration not stated)	inactive: -0.323
CP(=O)(Oc1ccccc1)OC(c1ccccc1)C(F)(F)F (configuration not stated)	inactive: -0.164
CCc1ccc(OP(C)(=O)N2CCN(c3ccc([N+](=O)[O-])cc3)CC2)cc1 (configuration not stated)	inactive: -2.33
CP(=O)(NC(=O)Nc1ccccc1)Oc1ccccc1 (configuration not stated)	inactive: 0.445
Cc1cc(C)cc(OP(C)(=O)Nc2ccc(SC(F)(F)F)cc2)c1 (configuration not stated)	inactive: -0.584
CCOP(C)(=S)SCC(=O)NC(C)C(=O)O (configuration not stated)	inactive: 0.809
CCOC(=O)c1ccc(NP(C)(=O)Oc2ccc(OC)cc2)cc1 (configuration not stated)	inactive: 0.383
CP(=O)(Nc1ccccn1)Oc1ccc(Cl)cc1 (configuration not stated)	inactive: 0.705
CP(=S)(Nn1cnnc1)Oc1ccccc1 (configuration not stated)	inactive: 0.834

Structure (SMILES)	B-score
CP(=O)(Nc1ccccc1Br)Oc1ccccc1 (configuration not stated)	inactive: -1.73
CC(C)(C)c1ccc(OP(C)(=O)Nc2ccc(SC(F)(F)F)cc2)cc1 (configuration not stated)	inactive: 1.11
Cc1cccc(C)c1OP(C)(N)=O (configuration not stated)	inactive: 0.0826
O=[N+]([O-])c1ccc2c(c1)C=Nc1ccccc1O2	inactive: 0.144
CCOC(=O)c1ccc(NP(C)(=O)Oc2ccccc2)cc1 (configuration not stated)	inactive: 0.253
COc1ccccc1OP(C)(=O)Nc1ccc(C)cc1 (configuration not stated)	inactive: -0.0623
Cc1ccc(NP(C)(=O)Oc2ccccc2)c(C)c1 (configuration not stated)	inactive: -0.019
COc1ccccc1OP(C)(=O)Nc1cc(Cl)ccc1C (configuration not stated)	inactive: -1.08
COc1ccc(OP(C)(=O)Nc2cccc(F)c2)cc1 (configuration not stated)	inactive: 0.39
Cc1cc(C)cc(OP(C)(N)=O)c1 (configuration not stated)	inactive: 0.866
COc1ccccc1OP(C)(=O)Nc1cccc(Br)c1 (configuration not stated)	inactive: -0.0194
Cc1cc(C)cc(OP(C)(=O)Nc2ccc(C)cc2C)c1 (configuration not stated)	inactive: -1.24
CCOC(=O)c1ccc(NP(C)(=O)Oc2cc(C)cc(C)c2)cc1 (configuration not stated)	inactive: -0.464
CP(=O)(Nc1cccc(Br)c1)Oc1ccccc1 (configuration not stated)	inactive: 0.246
Cc1cc(C)cc(OP(C)(=O)Nc2ccccn2)c1 (configuration not stated)	inactive: -0.49
Cc1ccc(C)c(NP(C)(=O)Oc2ccccc2)c1 (configuration not stated)	inactive: 0.35
CC1=NCCc2c1[nH]c1ccccc21.O=[N+]([O-])c1cc([N+](=O)[O-])c(O)c([N+](=O)[O-])c1	inactive: 1.77
O=[N+]([O-])c1cc([N+](=O)[O-])c(Nc2nnnn2CCO)c([N+](=O)[O-])c1	inactive: -0.0411
CCOC(=O)C(CC)C1=NC(C)(C)Cc2ccccc21.O=[N+]([O-])c1cc([N+](=O)[O-])c(O)c([N+](=O)[O-])c1 (configuration not stated)	inactive: 0.0541
CN1CCCCC1COC(=O)C1(O)c2ccccc2CCc2ccccc21 (configuration not stated)	inactive: 1.08
COc1ccccc1OP(C)(=O)Nc1c(C)cccc1C (configuration not stated)	inactive: 0.0458
CP(=O)(Nc1ccc(SC(F)(F)F)cc1)Oc1ccccc1 (configuration not stated)	inactive: 0.251
CCCOc1ccc(NP(C)(=O)Oc2ccc(Cl)cc2)cc1 (configuration not stated)	inactive: -0.0569
O=[N+]([O-])c1cc([N+](=O)[O-])c(-n2nnc3ccccc32)c([N+](=O)[O-])c1	inactive: -0.122
Cc1nc2ccc3ccccc3c2s1.O=[N+]([O-])c1cc([N+](=O)[O-])c(O)c([N+](=O)[O-])c1	inactive: -0.219

— PubChem BioAssay AID1456 (Vanderbilt High Throughput Screening Facility, 2008)
